Reference: article PMC4004761 (Journal of medicinal chemistry, 2013)
Where two headings read alike, the source gives them in different places. Marks after values point to notes of the source that are not given here.

How the values were obtained:
[1] = system: maximal electroshock seizure (hind-limb tonic extension); conditions: mouse; for MES, ip, effect (animals responding / animals tested): 300 mg/kg ip
[2] = system: kindled seizures (seizure score, after-discharge duration); conditions: rat, i.p.
GABA receptors = conditions: 10 μM
[3] = system: central benzodiazepine receptors; conditions: 10 μM
chloride ion channels = conditions: 10 μM

Compound	MES, po, effect (animals responding / animals tested) ([1]; 300 mg/kg po, 0.5 h)	MES, po, effect (animals responding / animals tested) ([1]; 300 mg/kg po, 2 h)	MES, po, effect (animals responding / animals tested) ([1]; 100 mg/kg po, 0.5 h)	MES, po, effect (animals responding / animals tested) ([1]; 100 mg/kg po, 2 h)	further results
CN(CC1COc2ccccc2O1)S(N)(=O)=O (racemic) [compound 6, N-((2,3-Dihydrobenzo[1,4]dioxin-2-yl)methyl)-N-methylsulfamide]	3/3	1/3	–	–	–
NS(=O)(=O)NC[C@H]1COc2ccc(Cl)cc2O1 [10b, (2S)-(–)-N-((7-Chloro-2,3-dihydrobenzo[1,4]dioxin-2-yl)methyl)sulfamide]	–	–	0/5	4/5	–
NS(=O)(=O)NC[C@H]1COc2cccc(Cl)c2O1 [10c]	–	–	1/5	0/5	–
NS(=O)(=O)NC[C@H]1COc2c(F)cccc2O1 [10d]	4/5	5/5	2/5	0/5	–
NS(=O)(=O)NC[C@H]1COc2cc(F)ccc2O1 [10e, (2S)-(–)-N-((6-Fluoro-2,3-dihydrobenzo[1,4]dioxin-2-yl)methyl)sulfamide]	4/5	5/5	–	–	–
NS(=O)(=O)NC[C@H]1COc2cc(Br)ccc2O1 [10f]	0/5	5/5	–	–	–
NS(=O)(=O)NC[C@H]1COc2cc(Cl)c(Cl)cc2O1 [10h, (2S)-(–)-N-((6,7-Dichloro-2,3-dihydrobenzo[1,4]dioxin-2-yl)methyl)sulfamide]	–	–	0/5	3/5	–
Cc1ccc2c(c1)O[C@@H](CNS(N)(=O)=O)CO2 [10i, (2S)-(–)-N-((7-Methyl-2,3-dihydrobenzo[1,4]dioxin-2-yl)methyl)sulfamide]	0.5, 0/5; 2, 0/5 ^g	0.5, 0/5; 2, 0/5 ^g	–	–	–
NS(=O)(=O)NCC1Oc2ccccc2O1 [11a, N-((Benzo[1,3]dioxol-2-yl)methyl)sulfamide]	–	–	5/5	0/5	MES, ip, effect (animals responding / animals tested) ([1]; 0.5 h): 0.5, 3/3
NS(=O)(=O)NC[C@H]1COc2cc(Cl)ccc2O1 [compound 4, (2S)-(–)-N-((6-Chloro-2,3-dihydrobenzo[1,4]dioxin-2-yl)methyl)sulfamide]	–	2, 5/5 ^g	0/10	2/10	Mean seizure score [2]: 2.1 ± 0.5; Time of decrease in seizure score [2]: 45 min; Time of peak activity [2]: 165 min; Affinity for GABA receptors (GABA receptors): virtually no affinity; Affinity for central benzodiazepine receptors [3]: virtually no affinity; Affinity for chloride ion channels (chloride ion channels): virtually no affinity
NS(=O)(=O)NCC1CCc2ccccc2O1 (stereo not drawn) [compound 8, N-(Chroman-2-ylmethyl)sulfamide]	3/3	2/3	1/5	0/5	–
NS(=O)(=O)NCCC1COc2ccccc2O1 (stereo not drawn) [compound 9, N-(2-(2,3-Dihydrobenzo[1,4]dioxin-2-yl)ethyl)sulfamide]	5/5	0/5	0.5, 0/5; 2, 0/5	0.5, 0/5; 2, 0/5	–
NS(=O)(=O)NCC1COc2ccccc2OC1 [compound 12, N-((3,4-Dihydro-2H-benzo[b][1,4]dioxepin-3-yl)methyl)sulfamide]	–	–	–	–	MES, ip, effect (animals responding / animals tested) ([1]; 0.5 h): 0.5, 2/3
